Data: PubChem BioAssay (NCI)
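Growth conditions: 96-well plates. Treatment: test compound, 48 hours, 5 concentrations. Analysis: linear interpolation between bracketing concentrations; unreached endpoints set to highest concentration. The concentration for 50% growth inhibition is given as GI50. The concentration for full growth arrest is given as TGI.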

Experiments:
Test in all cases: NCI anticancer screen, dose series, 48 h
MDA-MB-231 breast = test system: MDA-MB-231 breast
CCRF-CEM leukemia = test system: CCRF-CEM leukemia
KM12 colon = test system: KM12 colon
MDA-N = test system: MDA-N
IGROV1 ovarian = test system: IGROV1 ovarian
SF-268 CNS = test system: SF-268 CNS
HT29 colon = test system: HT29 colon
SW-620 colon = test system: SW-620 colon
NCI-H23 lung = test system: NCI-H23 lung
UO-31 renal = test system: UO-31 renal
OVCAR-3 ovarian = test system: OVCAR-3 ovarian
LOX IMVI melanoma = test system: LOX IMVI melanoma
K-562 leukemia = test system: K-562 leukemia
T-47D breast = test system: T-47D breast
OVCAR-5 ovarian = test system: OVCAR-5 ovarian
HOP-92 NSCLC = test system: HOP-92 NSCLC
SNB-75 CNS = test system: SNB-75 CNS
SN12C renal = test system: SN12C renal
HL-60(TB) leukemia = test system: HL-60(TB) leukemia
ACHN renal = test system: ACHN renal
MDA-MB-435 = test system: MDA-MB-435
PC-3 prostate = test system: PC-3 prostate
OVCAR-8 ovarian = test system: OVCAR-8 ovarian
BT-549 breast = test system: BT-549 breast
A549 NSCLC = test system: A549 NSCLC
SK-MEL-2 melanoma = test system: SK-MEL-2 melanoma
NCI-H226 lung = test system: NCI-H226 lung
NCI-H322M lung = test system: NCI-H322M lung

O=c1[nH]c2cc([N+](=O)[O-])c(N/N=C/C=C/c3ccc([N+](=O)[O-])o3)c([N+](=O)[O-])c2[nH]1 was tested, and the GI50 (MDA-MB-231 breast) was 17.8 µM, the TGI (MDA-MB-231 breast) was 49.6 µM and the GI50 (CCRF-CEM leukemia) was 1450 nM. For the same compound, the TGI (CCRF-CEM leukemia) was 4.35 µM, the GI50 (KM12 colon) was 5.67 µM and the TGI (KM12 colon) was 19.2 µM. For the same compound, the GI50 (MDA-N) was 6.25 µM, the TGI (MDA-N) was 56.1 µM and the GI50 (IGROV1 ovarian) was 12.8 µM. It also gave a TGI (IGROV1 ovarian) of 36.2 µM, a GI50 (SF-268 CNS) of 17.3 µM and a TGI (SF-268 CNS) greater than 100 µM. It also gave a GI50 (HT29 colon) of 22.7 µM, a TGI (HT29 colon) greater than 100 µM and a GI50 (SW-620 colon) of 11.6 µM. It also gave a TGI (SW-620 colon) greater than 100 µM, a GI50 (NCI-H23 lung) of 17.1 µM and a TGI (NCI-H23 lung) of 43.6 µM. The GI50 (UO-31 renal) was 27.4 µM, the TGI (UO-31 renal) was greater than 100 µM and the GI50 (OVCAR-3 ovarian) was 4.18 µM. For the same compound, the TGI (OVCAR-3 ovarian) was 14.2 µM, the GI50 (LOX IMVI melanoma) was 5.4 µM and the TGI (LOX IMVI melanoma) was 32.9 µM. It also gave a GI50 (K-562 leukemia) of 14.8 µM, a TGI (K-562 leukemia) of 59.2 µM and a GI50 (T-47D breast) of 8.89 µM. The TGI (T-47D breast) was 22.6 µM, the GI50 (OVCAR-5 ovarian) was 55.3 µM and the TGI (OVCAR-5 ovarian) was greater than 100 µM. It also gave a GI50 (HOP-92 NSCLC) of 14.9 µM, a TGI (HOP-92 NSCLC) of 33.1 µM and a GI50 (SNB-75 CNS) of 13.4 µM. For the same compound, the TGI (SNB-75 CNS) was 30 µM, the GI50 (SN12C renal) was 14.7 µM and the TGI (SN12C renal) was 49.8 µM. The GI50 (HL-60(TB) leukemia) was 3.3 µM, the TGI (HL-60(TB) leukemia) was 18 µM and the GI50 (ACHN renal) was 4.33 µM. The TGI (ACHN renal) was 17.3 µM, the GI50 (MDA-MB-435) was 4.54 µM and the TGI (MDA-MB-435) was 19.7 µM. It also gave a GI50 (PC-3 prostate) of 5.34 µM, a TGI (PC-3 prostate) of 27.3 µM and a GI50 (OVCAR-8 ovarian) of 11.9 µM. It also gave a TGI (OVCAR-8 ovarian) of 45.9 µM, a GI50 (BT-549 breast) of 13.3 µM and a TGI (BT-549 breast) of 36.8 µM. The GI50 (A549 NSCLC) was 38.4 µM, the TGI (A549 NSCLC) was greater than 100 µM and the GI50 (SK-MEL-2 melanoma) was 15.6 µM. It also gave a TGI (SK-MEL-2 melanoma) greater than 100 µM, a GI50 (NCI-H226 lung) of 10.4 µM and a TGI (NCI-H226 lung) of 27.3 µM. For the same compound, the GI50 (NCI-H322M lung) was 12.2 µM and the TGI (NCI-H322M lung) was 31.3 µM.
